{
  "sequences": {"note": "Amino acid sequences for entries named in this document (tags omitted).", "UniProt O95180, whole entry": "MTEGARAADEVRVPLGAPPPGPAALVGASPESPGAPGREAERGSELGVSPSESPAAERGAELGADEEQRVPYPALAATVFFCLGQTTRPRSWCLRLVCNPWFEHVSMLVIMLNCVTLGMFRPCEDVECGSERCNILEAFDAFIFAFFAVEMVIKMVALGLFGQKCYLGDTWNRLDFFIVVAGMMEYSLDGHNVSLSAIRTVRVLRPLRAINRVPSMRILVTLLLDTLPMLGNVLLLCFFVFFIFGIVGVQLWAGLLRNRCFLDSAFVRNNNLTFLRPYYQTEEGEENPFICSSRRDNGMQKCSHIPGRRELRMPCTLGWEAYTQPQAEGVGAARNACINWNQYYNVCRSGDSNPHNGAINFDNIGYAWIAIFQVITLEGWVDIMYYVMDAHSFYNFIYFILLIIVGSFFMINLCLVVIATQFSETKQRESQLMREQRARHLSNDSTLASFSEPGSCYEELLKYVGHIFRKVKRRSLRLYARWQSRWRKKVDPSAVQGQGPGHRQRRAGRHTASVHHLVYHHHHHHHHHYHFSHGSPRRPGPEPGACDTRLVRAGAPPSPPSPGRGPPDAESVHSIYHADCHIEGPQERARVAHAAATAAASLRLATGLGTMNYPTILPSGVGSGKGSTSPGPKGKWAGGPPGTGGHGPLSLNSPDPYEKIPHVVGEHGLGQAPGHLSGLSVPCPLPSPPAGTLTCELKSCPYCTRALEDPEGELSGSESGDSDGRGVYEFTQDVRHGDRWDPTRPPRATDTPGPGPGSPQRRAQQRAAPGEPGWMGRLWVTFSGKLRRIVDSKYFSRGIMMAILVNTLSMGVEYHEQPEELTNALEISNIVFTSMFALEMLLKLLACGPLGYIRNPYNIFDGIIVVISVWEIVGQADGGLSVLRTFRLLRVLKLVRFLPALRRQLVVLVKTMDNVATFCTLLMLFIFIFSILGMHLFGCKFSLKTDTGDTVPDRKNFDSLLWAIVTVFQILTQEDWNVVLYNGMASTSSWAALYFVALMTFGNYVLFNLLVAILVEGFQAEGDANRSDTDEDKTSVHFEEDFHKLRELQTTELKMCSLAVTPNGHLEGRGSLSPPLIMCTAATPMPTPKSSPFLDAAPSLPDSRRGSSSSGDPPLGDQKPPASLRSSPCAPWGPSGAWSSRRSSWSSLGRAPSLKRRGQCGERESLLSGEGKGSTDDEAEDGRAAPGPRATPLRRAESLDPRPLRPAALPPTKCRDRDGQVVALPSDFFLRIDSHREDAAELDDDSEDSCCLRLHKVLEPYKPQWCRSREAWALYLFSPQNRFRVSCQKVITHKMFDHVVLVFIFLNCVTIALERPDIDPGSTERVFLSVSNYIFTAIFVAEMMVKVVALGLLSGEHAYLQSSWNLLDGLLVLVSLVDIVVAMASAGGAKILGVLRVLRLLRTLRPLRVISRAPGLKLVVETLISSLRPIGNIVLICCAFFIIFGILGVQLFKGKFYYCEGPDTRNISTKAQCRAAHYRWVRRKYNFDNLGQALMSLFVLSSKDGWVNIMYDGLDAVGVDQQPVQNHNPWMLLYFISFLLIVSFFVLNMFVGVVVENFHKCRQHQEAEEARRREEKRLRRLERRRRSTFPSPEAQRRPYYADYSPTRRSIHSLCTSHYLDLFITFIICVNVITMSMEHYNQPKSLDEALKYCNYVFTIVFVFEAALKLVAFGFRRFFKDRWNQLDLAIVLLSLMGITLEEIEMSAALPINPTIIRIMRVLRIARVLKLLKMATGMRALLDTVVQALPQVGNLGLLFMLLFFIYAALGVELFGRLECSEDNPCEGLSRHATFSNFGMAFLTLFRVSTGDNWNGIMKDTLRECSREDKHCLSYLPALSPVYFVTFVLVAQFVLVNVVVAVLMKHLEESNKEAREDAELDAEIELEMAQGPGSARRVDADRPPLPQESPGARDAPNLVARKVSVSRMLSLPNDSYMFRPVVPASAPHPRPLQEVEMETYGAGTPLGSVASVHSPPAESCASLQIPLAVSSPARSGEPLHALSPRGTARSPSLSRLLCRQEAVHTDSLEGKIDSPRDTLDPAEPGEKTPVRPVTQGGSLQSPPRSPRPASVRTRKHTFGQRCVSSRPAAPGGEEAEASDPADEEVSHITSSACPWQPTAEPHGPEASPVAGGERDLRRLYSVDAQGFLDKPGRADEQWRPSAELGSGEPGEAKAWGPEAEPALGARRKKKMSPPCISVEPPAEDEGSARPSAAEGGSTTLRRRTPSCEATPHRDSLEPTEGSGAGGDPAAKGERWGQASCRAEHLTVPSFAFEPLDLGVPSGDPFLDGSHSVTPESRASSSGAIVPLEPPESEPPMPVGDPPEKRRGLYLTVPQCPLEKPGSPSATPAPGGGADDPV"},
  "source": "patent US11420944B2",
  "about": "“Voltage-dependent t-type calcium channel blocker” (Nippon Chemiphar Co., Ltd., priority 2016, dated 2022)",
  "molecular_target": "human Cav3.2 channels (Homo sapiens, UniProt O95180)",
  "assay": "Intracellular calcium concentration measurement (Fluo-4 AM) in stable cells expressing human Cav3.2 channels, buffer A / buffer B",
  "settings": "read-out: Inhibitory action of buffer A (inactivated state), Tables 2 to 6, equilibrium potential of potassium −92 mV",
  "text": "Construction of Stable Cells Expressing Human Cav3.2 Channels\n(1) A sequence produced by incorporating HindIII site and kozak sequence (GCCACC) into the 5′-terminal side of human Cav3.2 channel ORF (Open Reading Frame) gene and incorporating Kpnl site into the 3′-terminal side was incorporated into pcDNA3.1(+) (Thermo-Fisher Scientific, Inc., #V790-20), and the plasmid was transfected into HEK293 cells (ATCC No. CRL-1573) according to the protocol of FuGENE (registered trademark) HD Transfection Reagent (PROMEGA #E2311).\n(2) Method for Measuring Intracellular Calcium Concentration […]\nStable cell line expressing human Cav3.2 channels, which had been produced in (1), was seeded in a 96-well plate using DMEM medium including 10% FBS, and the cells were cultured for 48 hours under the conditions of 37° C. and 5% CO2. Subsequently, the medium was removed, and various wells that had been washed with a base buffer were treated with 80 μL of a fluorescent dye solution containing a mixed liquid of 22 μg of calcium fluorescence indicator Fluo-4 AM (Dojindo Laboratories Co., Ltd., #F311), 20 μL of DMSO, […] of 10% Pluronic F-127 (Thermo-Fisher Scientific, Inc., #P6866), and 4 mL of a base buffer. […] The cells were left to stand for another 15 minutes at room temperature in the dark, and the cells were analyzed using the following method using a microplate reader, EnVision (PerkinElmer, Inc.). […]",
  "note": "pIC50: −log10 of the molar value.",
  "data": [
    {"smiles": "C[C@@H](NC(=O)C1CC1c1nc2ccccc2o1)c1cnc(OCC(F)(F)F)s1", "note": "(single isomer, unassigned)", "values": [
      {"measurement": "pIC50", "result": "5.00 to 6.00"}
    ]}
  ]
}
